Reference: publication PMC9578043 (Journal of medicinal chemistry, 2021)

Target: unliganded TTR tetramers isolated from human plasma (Homo sapiens, UniProt P02766)

SMILES | TTR activity (in words) | loss in TTR FP potency relative to 14
O=C(O)c1ccc(F)c(N2CCN(c3nn[nH]n3)CC2)c1 [compound 48, 3-(4-(2H-tetrazol-5-yl)piperazin-1-yl)-4-fluorobenzoic acid] | complete loss | –
Cc1n[nH]c(C)c1N1CC2(CN(c3cc(C(=O)O)ccc3F)C2)C1 [compound 44, 3-(6-(3,5-Dimethyl-1H-pyrazol-4-yl)-2,6-diazaspiro[3.3]heptan-2-yl)-4-fluorobenzoic Acid] | inactive | –
Cc1n[nH]c(C)c1N1CCC2(CCN(c3cc(C(=O)O)ccc3F)C2)C1 (racemic) [(±)-38, (±)-3-(7-(3,5-dimethyl-1H-pyrazol-4-yl)-2,7-diazaspiro[4.4]nonan-2-yl)-4-fluorobenzoic acid] | – | 5 fold
